Measurements from ChEMBL document CHEMBL4270669 (J Med Chem, 2018).

Chains of the proteins cited; added tags and fusions are not shown. Lines headed by an entry give the natural chain unless they say otherwise; changes in a name come on top.
UniProt P48736: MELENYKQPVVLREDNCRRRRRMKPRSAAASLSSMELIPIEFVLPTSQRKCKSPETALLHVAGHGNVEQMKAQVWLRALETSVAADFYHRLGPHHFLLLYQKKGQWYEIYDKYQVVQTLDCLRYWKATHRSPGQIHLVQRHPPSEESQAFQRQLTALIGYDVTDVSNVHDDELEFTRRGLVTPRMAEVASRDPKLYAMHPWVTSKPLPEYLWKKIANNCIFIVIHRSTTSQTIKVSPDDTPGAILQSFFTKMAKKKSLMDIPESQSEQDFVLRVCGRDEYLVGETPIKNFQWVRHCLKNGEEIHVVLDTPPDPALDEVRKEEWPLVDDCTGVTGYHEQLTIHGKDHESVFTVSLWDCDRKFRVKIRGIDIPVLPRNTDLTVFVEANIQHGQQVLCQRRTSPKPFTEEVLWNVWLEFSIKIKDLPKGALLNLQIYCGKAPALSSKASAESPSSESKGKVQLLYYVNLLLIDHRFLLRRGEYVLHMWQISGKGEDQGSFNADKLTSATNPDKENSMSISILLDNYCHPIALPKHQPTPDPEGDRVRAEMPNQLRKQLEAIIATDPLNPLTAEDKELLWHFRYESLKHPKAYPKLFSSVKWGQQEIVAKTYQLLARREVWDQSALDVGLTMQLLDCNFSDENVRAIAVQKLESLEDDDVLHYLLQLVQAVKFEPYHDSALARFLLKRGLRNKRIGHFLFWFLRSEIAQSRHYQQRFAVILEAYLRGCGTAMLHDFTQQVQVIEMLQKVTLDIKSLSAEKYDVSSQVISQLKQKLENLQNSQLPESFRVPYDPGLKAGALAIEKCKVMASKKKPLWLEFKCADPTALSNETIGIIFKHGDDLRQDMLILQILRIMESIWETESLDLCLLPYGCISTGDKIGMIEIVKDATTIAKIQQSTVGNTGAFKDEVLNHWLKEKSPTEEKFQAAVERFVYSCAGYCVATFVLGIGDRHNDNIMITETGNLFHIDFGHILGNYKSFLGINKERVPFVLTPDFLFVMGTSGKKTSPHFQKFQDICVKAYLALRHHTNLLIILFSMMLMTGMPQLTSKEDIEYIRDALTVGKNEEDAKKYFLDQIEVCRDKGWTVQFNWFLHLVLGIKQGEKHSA

Biological target: Phosphatidylinositol 4,5-bisphosphate 3-kinase catalytic subunit gamma isoform (Homo sapiens, UniProt P48736)

Question: CC(C)n1nc(-c2ccc3oc(N)nc3c2)c2c(N)ncnc21 [SAPANISERTIB] was tested. Which Kd did it give?
Answer: Its Kd is 3.7 nM.
